# Ab-95 light chain CDR variants: yeast mating affinities

Target: peptide PDVDLGDISGINAS, taken from heptad repeat 2 (HR2) of SARS-CoV-2 spike.

Parent: Ab-95, a human scFv built as VH, a 15-residue (Gly4Ser)3 linker, VL. Only the CDRs of the light chain vary.
VH: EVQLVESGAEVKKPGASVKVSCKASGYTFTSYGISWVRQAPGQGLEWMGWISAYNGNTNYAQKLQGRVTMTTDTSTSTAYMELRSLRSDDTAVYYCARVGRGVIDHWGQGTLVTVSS
VL: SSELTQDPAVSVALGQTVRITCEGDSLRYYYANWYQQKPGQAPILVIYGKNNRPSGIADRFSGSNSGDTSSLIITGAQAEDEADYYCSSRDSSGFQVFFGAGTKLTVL

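Phage display of a naive human antibody library on the peptide gave the parent. The library (AAYL52) carries one to three amino acid substitutions per variant, with no insertions or deletions. AlphaSeq pools MATa yeast showing the antibodies with MATalpha yeast showing the peptide. After mating in shaken culture at 30 °C for 16 h, diploids were selected and their barcode pairs sequenced. The ratio of observed to expected reads was calibrated, replicate by replicate, on BCL2-family standards whose Kd was known from biolayer interferometry. There are three technical replicates.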

Substitutions are numbered in sequence along the VL above, starting at 1 (not Kabat). Every variant below is changed at N52 of the VL (sequential numbering). The read-out is the apparent dissociation constant on a log10 scale (nM): the lower, the stronger. A mean of the replicates is given; it leaves out those without a signal. A pair that was not seen in any replicate is written "nd"; this usually means weak binding, but a binder can also be missed. Order: sorted from the lowest average up, undetected variants last.

For Y30A N52G Q96S, the assay gave 1.49 (3 of 3 replicates). For D25M N52D S55E, the assay gave 2.01 (3 of 3 replicates). For E23A N52Y, the assay gave 2.23 (3 of 3 replicates). Variant N52Q D91E G94E gave 2.25 (2 of 3 replicates). Variant N52Y S92V Q96N showed 2.46 (3 of 3 replicates). Variant R28F Y30F N52V gave 2.50 (3 of 3 replicates). For G24A N52T F95Y, the assay gave 2.66 (3 of 3 replicates). With N52G S55K F95N the result was 2.71 (3 of 3 replicates). For N52K D91I F98W, the assay gave 2.83 (1 of 3 replicates).

Variant N52T S89D V97T gave 2.98 (3 of 3 replicates). With Y30P K50F N52D the result was 3.08 (3 of 3 replicates). Variant G24S N52C G94E gave 3.18 (1 of 3 replicates). With E23C N52W F98M the result was 3.23 (3 of 3 replicates). For G24P N52C R90D, the assay gave 3.29 (3 of 3 replicates). For N52K S93M F98T, the assay gave 3.33 (1 of 3 replicates). For N33A N52Y, the assay gave 3.46 (2 of 3 replicates). For N52A P54A S88Y, the assay gave 3.49 (3 of 3 replicates). Variant R28N N52R V97W gave 3.55 (3 of 3 replicates).

For D25H Y29P N52W, the assay gave 3.58 (1 of 3 replicates). Variant N52W S55Y R90H showed 3.61 (2 of 3 replicates). With N52F R53V G94C the result was 3.68 (3 of 3 replicates). Variant N51K N52H S93P gave 3.83 (1 of 3 replicates). With N52A S89Q G94T the result was 3.85 (3 of 3 replicates). For L27N K50A N52A, the assay gave 3.94 (1 of 3 replicates). Variant S26R N52G V97Y gave 3.97 (1 of 3 replicates). Variant N51P N52F S88V showed 4.03 (1 of 3 replicates). For N33S N52A S88T, the assay gave 4.13 (2 of 3 replicates).

Variant A32W N52V R53L showed 4.23 (3 of 3 replicates). Variant D25L Y29C N52W showed 4.43 (2 of 3 replicates). Variant N52Q R53C P54C showed 4.49 (2 of 3 replicates). Variant G49Q N52K R53Q showed 4.55 (3 of 3 replicates). Variant N51V N52Y D91Q gave 4.57 (2 of 3 replicates). Variant G24D N52V P54L gave 4.83 (2 of 3 replicates). With L27I N52W R53C the result was 5.07 (1 of 3 replicates). For G24D K50H N52W, the assay gave 5.48 (1 of 3 replicates). For G49S N52A S89H, the assay gave 5.58 (2 of 3 replicates).

With N52G R53P R90P the result was 6.24 (1 of 3 replicates). For N51I N52P S92A, the assay gave nd (0 of 3 replicates). Variant N52R S88Y F98Y gave nd (0 of 3 replicates). For N52V P54E D91Q, the assay gave nd (0 of 3 replicates). For L27G N52D R53S, the assay gave nd (0 of 3 replicates). Variant G24K N52P D91F showed nd (0 of 3 replicates). Variant A32L N52I R53A gave nd (0 of 3 replicates). Variant N52P G94K V97F showed nd (0 of 3 replicates). With Y29Q N52W R53F the result was nd (0 of 3 replicates).

The opening 3 entries, copied out:

With Y30A N52G Q96S the result was 1.49 (3 of 3 replicates).
With D25M N52D S55E the result was 2.01 (3 of 3 replicates).
With E23A N52Y the result was 2.23 (3 of 3 replicates).

Background: pairings of library AAYL52 with three empty control strains gave a value in 28% of cases (median 3.91, 5th percentile 2.90). Values in that range, when seen in few replicates, are hard to tell from nonspecific mating.

Source: Engelhart et al. 2022 (doi:10.1038/s41597-022-01779-4), MIT Lincoln Laboratory and A-Alpha Bio; data file from the FLAb repository.